Data on 1 substance can be found in patent US20160045158A1, “DEVICES, SYSTEMS, AND METHODS FOR TRANSDERMAL DELIVERY OF COMPOUNDS” (PROMETHEON PHARMA, LLC, priority 2013, published 2016).

This data set relates to EpidermFT™ (MatTek) full thickness human skin equivalent tissues. The data set is described as follows: Transdermal flux/accumulation across EpidermFT full thickness human skin equivalents (Iso-Insulin ELISA of receptor fluid). Type of data set: in vitro ADME. Conditions: TopiconDM™. How it is done: Proof-of-concept ex vivo studies of transdermal delivery of long-acting insulin analogues by a poloxamer 188, propylene glycol and lauracopram formulation designated TopiconDM™ were performed using metabolically active full thickness human skin equivalent (HSE) inserts from EpidermFT™ (MatTek) grown on a semi-permeable membrane that allows test compounds to pass through the tissue and accumulate in the receptor fluid on the other side. It is important to note that the term TopiconDM™ is a trademark, is not descriptive of the subject formulation, and is merely an indication of the source of the subject formulation. Thus, the use of the term TopiconDM™ herein shall not be used to affect any trademark rights associated with the term TopiconDM™. […]
To determine the feasibility of creating a 7-day (weekly) TopiconDM™ insulin glargine patch, a protocol was developed in which the tissue inserts were incubated in tissue culture maintenance medium (with serum). […] It was empirically determined that 50 microliters of the formulations was sufficient to cover the entire surface of the tissue inserts when applied directly to the center. […] Plasma insulin and insulin analogue accumulation in mIU/cm^2 (reflecting transdermal delivery across 0.6 cm^2 tissue surface area) was quantified using the Iso-Insulin ELISA Kit (Mercodia AB, Uppsala, Sweden). […]

With regular insulin, for the setting “10-50 U/0.6 cm^2, 5-day study, preliminary”, the flux dose-response entry was “clear dose-response”. Where the note is “up to 50 U/0.6 cm^2”, the saturation of flux result is listed as “no saturation was observed at the highest dose”.
